Vif imaging: HIV Vif self-association inhibitors, primary screen, imaging, HEK293T, single point; inhibition, % at 7.49 µM; HEK293T cells, Vif self-association by quenched fluorescence, 24 h; 0.35% of 340,000 active; in the data active = inhibition above about 50%, passing the limit was not always enough
PglD inh: C. jejuni PglD acetyltransferase inhibitors, primary screen, biochemical, DTNB colorimetric, single point; UDP-N-acetylbacillosamine N-acetyltransferase PglD (Campylobacter jejuni); purified PglD enzyme, DTNB colorimetric CoA detection; inhibition, % at 12.5 µM; 0.098% of 360,000 active; AID 602405, 2012; in the data active = inhibition above about 16%, passing the limit was not always enough
CAL PDZ FP-1: CAL PDZ peptide-binding inhibitors, primary screen, biochemical, fluorescence polarization, Cer-tagged CAL PDZ, HTS; purified CAL PDZ, TMR-peptide fluorescence polarization, 1 h; inhibition, % at 20 µM; 0.02% of 330,000 active;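 active = highest replicate inhibition of at least 40%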
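Test system: tagged CAL PDZ domain / Buffer or medium: sodium phosphate/NaCl buffer pH 7.4 with TCEP, IgG, Thesit / Reagent: TMR-labelled reporter peptide T*-PRC34 bound in PDZ groove / Compound dosing: single point, 20 µM / Schedule: 1 h incubation at room temperature before polarization reading / Technique: fluorescence polarization (mP) / Benchmarks: unlabelled peptide, DMSO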
UUG fidelity: modulators of start codon recognition fidelity in yeast. S. cerevisiae UUG-firefly luciferase reporter, luminescence/redox ratio. activity score, % at 18.7 µM. 0.13% of 350,000 active. AID 602363;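 active = replicate mean at a twofold rise or more, about +100% in these data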;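 also: firefly luciferase made from a UUG start codon reports start codon fidelity; reporter light over untreated wells divided by growth signal over untreated wells; some hits fall short of that in this replicate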
ARNT TACC3 PPI: disruptors of ARNT/TACC3 protein interaction, primary screen, biochemical, AlphaScreen, single concentration; AlphaScreen His-ARNT PAS-B/GST-TACC3 binding, luminescence; TACC3 fragment carries E629A point mutation; inhibition, % at 9.99 µM; 0.66% of 390,000 active; AID 623870, 2012;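 active = mean inhibition of replicates at least 50% and at least half of replicates each reaching 50%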
CAL PDZ FP-2: untagged CAL PDZ binding inhibitors, primary screen, biochemical, fluorescence polarization, HTS | Golgi-associated PDZ and coiled-coil motif-containing protein (Homo sapiens), Q9HD26 | purified CAL PDZ, TMR-peptide fluorescence polarization, 1 h | inhibition, % at 24.9 µM | 0.92% of 300,000 active;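 active = mean inhibition of at least 30% with at least half of replicates also reaching 30%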
A number is an active result; 0 = inactive; - = no result given; + = active, no number. Shown are actives, neighbours in structure and some others; about 1.6% of the full set was active somewhere.

SMILES	Vif imaging	PglD inh	CAL PDZ FP-1	UUG fidelity	ARNT TACC3 PPI	CAL PDZ FP-2
COc1cc(C(=O)Nc2sc3c(c2C(=O)O)CCC(C)C3)cc(OC)c1OC (stereo not drawn)	122	0	0	0	0	0
CCCCNC(=O)Nc1ccccc1CC	0	0	0	0	0	69
CCOc1ccccc1N1C(=O)CN(Cc2ccc(OC)c(OC)c2)C1=S	0	0	-	0	0	48
COc1cc2c(O)c3c(c(-c4ccc5c(c4)OCO5)c2cc1OC)C(=O)OC3	0	0	0	0	0	0
COc1cc2c(OC(C)=O)c3c(c(-c4ccc5c(c4)OCO5)c2cc1OC)C(=O)OC3	173	0	0	0	0	0
O=C(CN1c2ccccc2Sc2ccccc21)NNC(=S)Nc1ccc(Cl)cc1	0	0	0	0	0	-
O=C(CN1CCOCC1)NNC(=S)Nc1ccc(Cl)cc1	0	0	0	0	39	0
Cc1noc(C)c1NC(=O)N(C)C[C@H]1Oc2ccc(NC(=O)CCN3CCOCC3)cc2CC(=O)N([C@@H](C)CO)C[C@@H]1C	-	0	-	0	0	-
CCOC(=O)N1CCN(C(=O)C2CCN(C(=O)c3ccc([N+](=O)[O-])cc3)CC2)CC1	0	0	0	0	0	77
CCOC(=O)C1CCN(C(=O)C2CCN(C(=O)c3ccc([N+](=O)[O-])cc3)CC2)CC1	-	0	0	0	0	0
COCC(=O)Nc1ccc2c(c1)OC[C@@H](C)N(C(=O)Cc1ccccn1)C[C@H](C)[C@H](OC)CN(C)C2=O	-	0	-	0	0	-
C[C@@H]1CN([C@H](C)CO)C(=O)c2cc(NS(=O)(=O)c3cn(C)cn3)ccc2O[C@@H](C)CCCCO[C@H]1CN(C)Cc1ccncc1	-	0	-	0	0	-
COc1ccc(S(=O)(=O)N[C@@H]2C=C[C@H](CC(=O)NCCc3ccccc3)O[C@H]2CO)cc1	-	0	-	0	0	-
COc1ccc(CNC(=O)c2nc(S(=O)(=O)Cc3ccccc3)ncc2Cl)cc1	0	0	0	0	0	0
O=C(NCc1ccccc1)c1nc(S(=O)(=O)Cc2ccccc2)ncc1Cl	0	0	0	0	0	+
COc1cnc(-c2ccccn2)nc1Oc1ccc(Cl)c2ccccc12	0	0	0	0	17	0
Cc1cc(C(=O)NP(=O)(N2CCOCC2)N2CCOCC2)c(C)n1-c1ccc(N(C)C)cc1	0	-	0	-	0	88
Cn1nc(NC(=O)C2CCC2C(=O)O)c2c(F)cccc21 (stereo not drawn)	0	-	0	-	0	0
Cc1ccc(C(=O)Nc2nn(C)c3cccc(F)c23)cc1	50	0	-	0	-	-
Cc1cccc(C(=O)Nc2ccc(C(=O)/C=C/c3ccncc3)cc2)c1	0	0	43	0	0	0
Cc1cccc(C(=O)Nc2ccc(C(=O)/C=C/c3cccnc3)cc2)c1	0	0	0	0	0	0
O=Nc1[nH]c(=O)c(/C=C(\O)c2ccccc2)nc1NO	106	0	0	0	0	0
COC(=O)C[C@H]1CC[C@@H]2[C@H](COc3ccc(NC(=O)c4cc(C)on4)cc3C(=O)N2C)O1	-	0	-	0	0	-
N#C/C(=C/c1cn[nH]c1-c1cccc(Br)c1)C(=O)O	0	0	0	0	0	0
N#C/C(=C/c1cn[nH]c1-c1ccc(Br)cc1)C(=O)O	0	-	0	-	0	33
O=C(Nc1ccc(Br)c(Cl)c1)c1ccco1	0	0	-	0	0	46
Nc1cccc(NC(=O)c2ccco2)c1	0	0	-	0	0	0
CCC(=O)Oc1cccc(C(=O)Nc2cccc(NC(=O)c3ccco3)c2)c1	0	0	0	0	-	44
O=C(Nc1ccc(CSc2ccccc2)cc1)c1ccco1	0	0	0	0	0	63
O=C(Nc1cccc(F)c1)c1ccco1	0	0	54	0	0	0

Compound activity deposited in PubChem by Broad Institute.
